Values quoted from earlier work in patent US20070243132A1, “Transdermal delivery of pharmaceutical agents” (priority 2005, published 2007).

Conditions: microemulsion vs preparation with absorption enhancers oleic acid and d-limonene; cited from earlier work

SMILES: O=C(O)Cc1ccccc1Nc1c(Cl)cccc1Cl [diclofenac]
- efficiency of transdermal delivery: less efficient
